scFv variants of Ab-14 (heavy chain) against a SARS-CoV-2 spike peptide

The measurements come from Engelhart et al. 2022 (doi:10.1038/s41597-022-01779-4) through the FLAb antibody collection.

The target is the same throughout: PDVDLGDISGINAS, from the HR2 region of SARS-CoV-2 spike.

Each scFv is VH, a 15-residue (Gly4Ser)3 linker, VL, as in the parent Ab-14, and differs from it in the CDRs of the heavy chain only.
VH: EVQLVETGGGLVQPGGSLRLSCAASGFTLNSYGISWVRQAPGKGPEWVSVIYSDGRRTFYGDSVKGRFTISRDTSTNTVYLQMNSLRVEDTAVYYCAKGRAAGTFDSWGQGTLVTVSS
VL: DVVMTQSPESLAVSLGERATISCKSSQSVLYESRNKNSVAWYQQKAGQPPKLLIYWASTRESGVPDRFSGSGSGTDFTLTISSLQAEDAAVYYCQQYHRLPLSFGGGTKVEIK

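In library AAYL49, one, two or three CDR residues were substituted; doubles and triples were drawn at random. Affinity was read by AlphaSeq, a pooled yeast mating assay with surface-displayed partners. After mating in shaken culture at 30 °C for 16 h, diploids were selected and their barcode pairs sequenced. A regression on co-assayed BCL2-family reference pairs converts the normalised counts of each replicate to an apparent Kd. There are three technical replicates.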

Substitutions are numbered in sequence along the VH above, starting at 1 (not Kabat). The read-out is the apparent dissociation constant on a log10 scale (nM): the lower, the stronger. Replicates are averaged; those with no signal do not enter the mean. "no signal" marks a missing value. The strain was present, yet no cells mated with the target were sequenced in any replicate, which points to weak or no binding. Nonspecific signal, from three strains lacking the peptide, appeared in 15% of pairings of library AAYL49, centred on 4.06 (5% of these signals below 2.83); values are not corrected for it. Also given: how often the same scFv was detected with the empty control strains.

mean, log10 nM	detected	control signals	changes
no signal	0/3	0/9	R57D G61F A101C
3.74	1/3	1/9	I34E I51Q V64A
2.99	1/3	1/9	G33H F59D D106G
no signal	0/3	2/9	I34G D54C R56C
no signal	0/3	1/9	S35P V50R R100Y
4.47	1/3	0/9	G26P G33Q R56A
no signal	0/3	0/9	T28L F59H Y60R
no signal	0/3	4/9	S31L R57F T104V
3.94	2/3	3/9	F59M V64M G103K
no signal	0/3	1/9	G33M A101W F105Q
no signal	0/3	3/9	S31Y Y60S A102F
no signal	0/3	2/9	S31L S53I S63G
4.83	1/3	0/9	I34R S35A R57G
no signal	0/3	0/9	F27R G61C T104I
2.40	1/3	2/9	N30W S63G K65I
no signal	0/3	1/9	T28H G55I G99A
3.71	1/3	0/9	L29D G55W A101C
0.61	3/3	2/9	T28H R100P A102E
3.98	1/3	4/9	L29Y G33P G61Y
5.18	1/3	1/9	N30C R56I V64L
no signal	0/3	0/9	I34D Y52F D62W
4.04	1/3	4/9	I34R R56F A101F
no signal	0/3	0/9	G26D D54C
4.08	1/3	2/9	F27Y G99R A102Q
no signal	0/3	0/9	T28H I34E S107F
no signal	0/3	2/9	S35I R57L D62Q
no signal	0/3	0/9	S31F S53M F59N
no signal	0/3	1/9	G26R L29D S63V
4.85	1/3	0/9	I51Y A102Y F105Y
no signal	0/3	0/9	L29W D54S A102Q
no signal	0/3	0/9	L29C N30R S35Y
1.65	2/3	0/9	G26D S53W
4.71	1/3	3/9	Y52V R57Y S63P
4.47	2/3	1/9	I51R T58G G61C
no signal	0/3	0/9	N30W R100M A102K
no signal	0/3	2/9	G33I I34D F59T
no signal	0/3	3/9	S35I V50S R100S
no signal	0/3	0/9	A102R G103S T104Q
4.21	2/3	5/9	L29D S31G I34G
no signal	0/3	1/9	D54R S63R
no signal	0/3	0/9	R56P R57G F59T
no signal	0/3	0/9	R56P V64D A102G
3.21	1/3	1/9	S35G F59P
4.01	1/3	1/9	G26L T28Y T104V
no signal	0/3	1/9	Y52I R100E A102F
no signal	0/3	0/9	G61D A101I G103K
3.87	1/3	4/9	T28D Y52D S63R
no signal	0/3	0/9	G33S S53M R57W
no signal	0/3	0/9	Y52H G61R F105R
no signal	0/3	0/9	F27Q Y32K G103N
4.50	2/3	3/9	Y52D D62A
3.45	2/3	2/9	T28D S53G R57M
no signal	0/3	0/9	D54P A102K F105G
2.26	3/3	4/9	T28N T58D S107Q
3.09	1/3	3/9	R57N G61C D106M
no signal	0/3	1/9	T28G I34G G55V
no signal	0/3	0/9	I51F S53T D62F
2.99	3/3	0/9	F27E K65I A101M
3.83	1/3	0/9	S53H R56D F59D
no signal	0/3	1/9	G33E D62R
4.35	1/3	6/9	I34R Y52P S107E
1.54	3/3	5/9	L29E N30S G103N
2.10	3/3	2/9	G26C Y32K S63P
5.02	2/3	4/9	G26W S31M V64D
no signal	0/3	1/9	S31I Y32K D62C
no signal	0/3	0/9	Y32E S35P Y60I
no signal	0/3	0/9	Y32N T58Y S107M
4.14	1/3	2/9	R57G F59M V64F
no signal	0/3	0/9	Y60P A101Y A102R
no signal	0/3	2/9	G26E V50N Y60V
no signal	0/3	0/9	L29S G103D